Assay results: publication PMC8474115 (Journal of Medicinal Chemistry, 2021)
Where two headings read alike, the source gives them in different places.

Chains of the proteins cited; added tags and fusions are not shown. Residues count along the entry.
UniProt O70212, 20-490: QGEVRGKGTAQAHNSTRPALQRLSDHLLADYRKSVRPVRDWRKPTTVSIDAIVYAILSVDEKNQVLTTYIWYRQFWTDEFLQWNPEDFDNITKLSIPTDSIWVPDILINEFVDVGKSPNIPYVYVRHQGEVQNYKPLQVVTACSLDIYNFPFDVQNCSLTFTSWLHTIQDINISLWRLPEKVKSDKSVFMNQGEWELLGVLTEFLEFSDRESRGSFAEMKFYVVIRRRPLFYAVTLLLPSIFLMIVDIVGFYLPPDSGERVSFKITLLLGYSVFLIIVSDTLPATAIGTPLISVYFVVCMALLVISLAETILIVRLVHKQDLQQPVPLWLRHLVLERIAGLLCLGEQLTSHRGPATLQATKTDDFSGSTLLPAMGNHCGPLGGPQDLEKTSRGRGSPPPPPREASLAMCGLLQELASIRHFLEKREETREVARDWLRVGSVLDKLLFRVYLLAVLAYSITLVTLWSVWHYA

Biological target: 5-HT3R (Cavia porcellus, UniProt O70212)
Conditions: percent of maximal contraction of guinea pig ileum induced by control agonist (5-HT)

**Q.** `c1ccc2c(c1)nc(N1CCNCC1)c1cc[nH]c12` [Compound 5e, 4-(Piperazin-1-yl)-1H-pyrrolo[3,2-c]quinoline] was tested. Which agonist effect (100 nM) did it give?
**A.** 9%

**Q.** And the agonist effect (300 nM)?
**A.** 43%

**Q.** How did the agonist effect (100 nM) turn out when `CN1CCN(c2nc3ccccc3c3[nH]ccc23)CC1` [Compound 5d, 4-(4-Methylpiperazin-1-yl)-1H-pyrrolo[3,2-c]quinoline] was run?
**A.** 100%
